From patent US10000452B1, “Quinolone-based compounds, formulations, and uses thereof” (University of South Florida, priority 2016, dated 2018) come the findings set out here.

Molecules are shown by their SMILES.

For test [1], the system named is malarial strain TM90-C2B (mefloquine, chloroquine, atovaquone, and pyrimethamine-resistant). The class given is cell-based, P. falciparum. The conditions noted are these: RI = EC50 TM90-C2B/EC50 W2. The text has this:
Ideally, the RI of a compound should lie between 0.3 and 3.0 in order to avoid rapidly inducing resistance in the parasite. […]

The next test relates to Pb-infected mice. Briefly: in vivo efficacy scouting assay against blood stages. Further details: species or system P. berghei; mice. The conditions noted are these: vs untreated animals; for % Inhibition Day 3 PI / % Inhibition Day 6 PI: single oral 50 mg/kg dose 1 day PI. The method, then:
The screening involved a single oral 50 mg/kg dose 1 day post infection (PI) and an assessment of parasitemia on days 3 PI and 6 PI (Table 6).
The screening was performed by treating two infected mice with a single 50 mg/kg oral dose of test compound suspended in PEG400 on day 1 postexposure (PE) followed by assessing parasitemia on days 3 and 6 PE.

In test [2] the test system is P. berghei sporozoite infected mice. Briefly: in vivo efficacy against liver stages, bioluminescence imaging. The conditions noted are these: single dose 1 hour after infection. The procedure: Animals (n=5 per group) received a single dose by gavage 1 hour after inoculation with sporozoites. Representative images taken at 44 h, day 6, day 9, and day 13 after infection are shown. At 44 h, bioluminescent signal was detected in control untreated animals, with the highest intensity noted in the area overlaying the liver, consistent with the presence of liver-stage parasites.
At 44 h PI, day 6 PI, day 9 PI, and day 13 PI, compound efficacy was determined by bioluminescence imaging via injection of D-luciferin. Both compounds were administered orally or subcutaneously at increasing doses of 25 mg/kg, 50 mg/kg, and 100 mg/kg in PEG 400. […] Progression of parasitemia was monitored up to 30 days after infection (Table 8).

Compound `COC(=O)c1c[nH]c2cc(CCN3CCN(Cc4ccccc4)CC3)ccc2c1=O` [Compound 8ad, Methyl 7-(2-(4-benzylpiperazin-1-yl)ethyl)-4-oxo-1,4-dihydroquinoline-3-carboxylate] had an RI in test [1] of 53.2. On the same count and under the same terms, to `O=c1c(Br)c[nH]c2cc(CN3CCN(c4ccc(F)cc4)CC3)ccc12` [Compound 8ak, 3-Bromo-7-((4-(4-fluorophenyl)piperazin-1-yl)methyl) quinolin-4(1H)-one] belongs 2.99. For `COC(=O)c1c[nH]c2cc(CN3CCN(Cc4ccc(OC)cc4)CC3)c(C)cc2c1=O` [Compound 8s, Methyl 7-((4-(4-methoxybenzyl)piperazin-1-yl)methyl)-6-methyl-4-oxo-1,4-dihydroquinoline-3-carboxylate], the “% Inhibition Day 3 PI” value in the test on Pb-infected mice is listed as 80.0%. For `COC(=O)c1c[nH]c2cc(CN3CCN(Cc4ccc(OC)cc4)CC3)c(OC)cc2c1=O` [Compound 8y, Methyl 6-methoxy-7-((4-(4-methoxybenzyl)piperazin-1-yl)methyl)-4-oxo-1,4-dihydroquinoline-3-carboxylate], in test [1], the RI was found to be 276. For the same compound, the “% Inhibition Day 3 PI” value in the test on Pb-infected mice stood at 100%. In the same order, the values of `COC(=O)c1c[nH]c2cc(N3CCN(c4ccccc4)CC3)c(C)cc2c1=O` [Compound 8c, Methyl 6-methyl-4-oxo-7-(4-phenylpiperazin-1-yl)-1,4-dihydroquinoline-3-carboxylate] are 24.4 and 80.0%. For the compound `COC(=O)c1c[nH]c2cc(CN3CCN(c4ccc(OC)cc4)CC3)c(C)cc2c1=O` [Compound 8t, Methyl 7-((4-(4-methoxyphenyl)piperazin-1-yl)methyl)-6-methyl-4-oxo-1,4-dihydroquinoline-3-carboxylate], in the test on Pb-infected mice, the “% Inhibition Day 3 PI” value is recorded as 100%.

With `COC(=O)c1c[nH]c2cc(CN3CCN(Cc4ccc5c(c4)OCO5)CC3)ccc2c1=O` [Compound 8m, Methyl 7-((4-(benzo[d][1,3]dioxol-5-ylmethyl)piperazin-1-yl)methyl)-4-oxo-1,4-dihydroquinoline-3-carboxylate], the “% Inhibition Day 3 PI” value in the test with Pb-infected mice was determined as 40.0%.

In the case of `COC(=O)c1c[nH]c2cc(CN3CCN(c4ccc(OC)cc4)CC3)c(OC)cc2c1=O` [Compound 8z, Methyl 6-methoxy-7-((4-(4-methoxyphenyl)piperazin-1-yl)methyl)-4-oxo-1,4-dihydroquinoline-3-carboxylate], in test [1], the RI turned out to be 255. Also, the “% Inhibition Day 3 PI” value with Pb-infected mice amounted to 100%. Regarding `COC(=O)c1c[nH]c2cc(CN3CCN(Cc4ccc(OC)cc4)CC3)ccc2c1=O` [Compound 8l, Methyl 7-((4-(4-methoxybenzyl)piperazin-1-yl)methyl)-4-oxo-1,4-dihydroquinoline-3-carboxylate], in the test on Pb-infected mice, the “% Inhibition Day 3 PI” value is 69.2% and the “% Inhibition Day 6 PI” value amounted to 41.2%. The “% Inhibition Day 9 PI” value in test [2] (50 mg/kg oral) was 38.8%. Further, the “% Inhibition Day 9 PI” value in test [2] (100 mg/kg oral) was found to be 43.9%. In turn, `COC(=O)c1c[nH]c2cc(CN3CCN(c4ccc(OC)cc4)CC3)ccc2c1=O` [Compound 8n, Methyl 7-((4-(4-methoxyphenyl)piperazin-1-yl)methyl)-4-oxo-1,4-dihydroquinoline-3-carboxylate] yielded an RI in test [1] of 62.4. For the same compound, the “% Inhibition Day 3 PI” value in the test with Pb-infected mice is given as 100%. Take `COC(=O)c1c[nH]c2cc(CN3CCN(Cc4ccccc4)CC3)ccc2c1=O` [Compound 8k, Methyl 7-((4-benzylpiperazin-1-yl)methyl)-4-oxo-1,4-dihydroquinoline-3-carboxylate]: in the test with Pb-infected mice, the “% Inhibition Day 3 PI” value turned out to be 100%.

In the case of `COC(=O)c1c[nH]c2cc(N3CCN(c4ccccc4)CC3)c(OC)cc2c1=O` [Compound 8d, Methyl 6-methoxy-4-oxo-7-(4-phenylpiperazin-1-yl)-1,4-dihydroquinoline-3-carboxylate], the “% Inhibition Day 3 PI” value with Pb-infected mice is 70.0%.

Turning to `COC(=O)c1c[nH]c2cc(CN3CCN(c4ccccc4)CC3)c(C)cc2c1=O` [Compound 8q, Methyl 6-methyl-4-oxo-7-((4-phenylpiperazin-1-yl)methyl)-1,4-dihydroquinoline-3-carboxylate], the “% Inhibition Day 3 PI” value in the test on Pb-infected mice is on record as 46.2%. In test [1], `COC(=O)c1c[nH]c2cc(CN3CCN(Cc4ccccc4)CC3)c(OC)cc2c1=O` [Compound 8x, Methyl 7-((4-benzylpiperazin-1-yl)methyl)-6-methoxy-4-oxo-1,4-dihydroquinoline-3-carboxylate] returned an RI of 519. Besides, the “% Inhibition Day 3 PI” value in the test on Pb-infected mice amounted to 80.0%.

For `COC(=O)c1c[nH]c2cc(N3CCN(Cc4ccccc4)CC3)c(OC)cc2c1=O` [Compound 8h, Methyl 7-(4-benzylpiperazin-1-yl)-6-methoxy-4-oxo-1,4-dihydroquinoline-3-carboxylate], the “% Inhibition Day 3 PI” value in the test on Pb-infected mice stood at 100%. On to `COC(=O)c1c[nH]c2cc(CN3CCN(c4ccc(C(F)(F)F)cc4)CC3)ccc2c1=O` [Compound 8p, Methyl 4-oxo-7-((4-(4-(trifluoromethyl)phenyl)piperazin-1-yl)methyl)-1,4-dihydroquinoline-3-carboxylate], for which the inhibition in vivo at 50 mg/kg in the test with Pb-infected mice (Plasmodium berghei, po, 144 h, read-out: % Inhibition Day 6 PI, single oral 50 mg/kg dose 1 day PI) was determined as 100%. As for `COC(=O)c1c[nH]c2ccc(CN3CCN(c4ccc(OC)cc4)CC3)cc2c1=O` [Compound 8ag, Methyl 6-((4-(4-methoxyphenyl)piperazin-1-yl)methyl)-4-oxo-1,4-dihydroquinoline-3-carboxylate], the “% Inhibition Day 3 PI” value with Pb-infected mice was 84.6%. With `COC(=O)c1c[nH]c2cc(CN3CCN(c4ccc(F)cc4)CC3)c(OC)cc2c1=O` [Compound 8aa, Methyl 7-((4-(4-fluorophenyl)piperazin-1-yl)methyl)-6-methoxy-4-oxo-1,4-dihydroquinoline-3-carboxylate], in test [1], the RI is 122. Further, the “% Inhibition Day 3 PI” value with Pb-infected mice is 100%.

Turning to `Cc1[nH]c2cc(CN3CCN(c4ccc(F)cc4)CC3)ccc2c(=O)c1Cl` [Compound 8ao, 3-Chloro-7-((4-(4-fluorophenyl)piperazin-1-yl)methyl)-2-methylquinolin-4(1H)-one], the RI in test [1] is reported as 1.35. The compound `COC(=O)c1c[nH]c2cc(CN3CCN(c4ccccc4)CC3)c(OC)cc2c1=O` [Compound 8w, Methyl 6-methoxy-4-oxo-7-((4-phenylpiperazin-1-yl)methyl)-1,4-dihydroquinoline-3-carboxylate] showed an RI in test [1] of 304. Besides, the “% Inhibition Day 3 PI” value with Pb-infected mice was determined as 100%. Consider `COC(=O)c1c[nH]c2cc(CN3CCN(c4ccc(F)cc4)CC3)ccc2c1=O` [Compound 8o, Methyl 7-((4-(4-fluorophenyl)piperazin-1-yl)methyl)-4-oxo-1,4-dihydroquinoline-3-carboxylate], for which, in the test on Pb-infected mice, the “% Inhibition Day 6 PI” value is recorded as 98.0%. For the compound `COC(=O)c1c[nH]c2cc(N3CCN(c4ccccc4)CC3)ccc2c1=O` [Compound 8a, Methyl 4-oxo-7-(4-phenylpiperazin-1-yl)-1,4-dihydroquinoline-3-carboxylate], the “% Inhibition Day 3 PI” value in the test with Pb-infected mice stood at 38.5%. The compound `COC(=O)c1c[nH]c2cc(CN3CCN(Cc4ccccc4)CC3)c(C)cc2c1=O` [Compound 8r, Methyl 7-((4-benzylpiperazin-1-yl)methyl)-6-methyl-4-oxo-1,4-dihydroquinoline-3-carboxylate] registered an RI in test [1] of 614. Besides, in the test with Pb-infected mice, the “% Inhibition Day 3 PI” value is given as 100%.

On to `O=c1c(Cl)c[nH]c2cc(CN3CCN(c4ccc(F)cc4)CC3)ccc12` [Compound 8al, 3-Chloro-7-((4-(4-fluorophenyl)piperazin-1-yl)methyl)quinolin-4(1H)-one], for which the RI in test [1] turned out to be 2.16. Further, in the test on Pb-infected mice, the “% Inhibition Day 3 PI” value stood at 100%. `COC(=O)c1c[nH]c2cc(CN3CCN(c4ccc(F)cc4)CC3)c(C)cc2c1=O` [Compound 8u, Methyl 7-((4-(4-fluorophenyl)piperazin-1-yl)methyl)-6-methyl-4-oxo-1,4-dihydroquinoline-3-carboxylate] returned an RI in test [1] of 413.
